Measured values from patent US20230219965A1 (KSQ Therapeutics, Inc., priority 2020, published 2023).

By UniProt entry, the sequences of proteins in these tests, tags left out.
UniProt O94782, whole entry: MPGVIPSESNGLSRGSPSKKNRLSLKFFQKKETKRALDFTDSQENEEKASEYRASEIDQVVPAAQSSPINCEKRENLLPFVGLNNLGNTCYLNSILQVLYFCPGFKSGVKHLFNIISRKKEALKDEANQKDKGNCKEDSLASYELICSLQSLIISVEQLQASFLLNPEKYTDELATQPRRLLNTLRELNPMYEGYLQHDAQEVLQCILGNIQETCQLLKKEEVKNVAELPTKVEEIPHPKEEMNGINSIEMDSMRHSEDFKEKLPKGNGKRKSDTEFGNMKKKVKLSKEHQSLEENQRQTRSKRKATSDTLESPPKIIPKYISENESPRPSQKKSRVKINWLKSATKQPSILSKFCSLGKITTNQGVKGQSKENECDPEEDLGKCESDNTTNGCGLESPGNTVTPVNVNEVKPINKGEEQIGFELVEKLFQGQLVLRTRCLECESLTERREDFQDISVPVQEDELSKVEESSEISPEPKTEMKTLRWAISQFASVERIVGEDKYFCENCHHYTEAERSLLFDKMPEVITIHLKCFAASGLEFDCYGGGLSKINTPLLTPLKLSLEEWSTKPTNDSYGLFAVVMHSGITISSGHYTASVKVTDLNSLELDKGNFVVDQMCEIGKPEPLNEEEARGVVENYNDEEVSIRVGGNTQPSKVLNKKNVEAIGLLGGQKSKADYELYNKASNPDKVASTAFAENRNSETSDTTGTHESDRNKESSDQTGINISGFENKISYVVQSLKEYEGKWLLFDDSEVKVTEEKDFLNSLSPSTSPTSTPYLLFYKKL
UniProt Q8TAF3, whole entry partner: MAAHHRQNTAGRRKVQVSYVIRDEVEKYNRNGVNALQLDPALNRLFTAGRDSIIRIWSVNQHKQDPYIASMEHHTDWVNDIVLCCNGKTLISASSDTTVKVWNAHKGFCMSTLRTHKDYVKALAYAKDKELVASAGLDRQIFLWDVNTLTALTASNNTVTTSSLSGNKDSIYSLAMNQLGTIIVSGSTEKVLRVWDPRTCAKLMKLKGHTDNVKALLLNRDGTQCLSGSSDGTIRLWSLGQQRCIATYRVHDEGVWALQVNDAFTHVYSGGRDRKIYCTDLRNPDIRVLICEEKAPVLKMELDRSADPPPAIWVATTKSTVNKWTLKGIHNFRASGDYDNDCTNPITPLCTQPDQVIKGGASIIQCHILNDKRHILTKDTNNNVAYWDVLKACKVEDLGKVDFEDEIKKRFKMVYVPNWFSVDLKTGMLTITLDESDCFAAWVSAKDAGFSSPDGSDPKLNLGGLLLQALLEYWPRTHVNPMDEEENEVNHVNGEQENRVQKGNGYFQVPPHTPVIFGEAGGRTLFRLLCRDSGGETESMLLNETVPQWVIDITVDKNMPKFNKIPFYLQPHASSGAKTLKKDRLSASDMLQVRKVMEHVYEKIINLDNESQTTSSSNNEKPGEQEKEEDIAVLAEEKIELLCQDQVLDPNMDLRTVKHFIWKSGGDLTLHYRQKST

What was measured:
[1] = test system: Ub-PCNA levels in the nucleus of ES2 cells (USP1 activity); assay: ES2 Ub-PCNA immunofluorescence (IF) assay; settings: read-out: USP1 IC50 (Ub-PCNA), 3 hours
Description: USP1 is a deubiquitinating enzyme that removes ubiquitin from mono-ubiquitinated Proliferating Cell Nuclear Antigen (Ub-PCNA). The levels of Ub-PCNA in the nucleus of cells can be used to assess the activity of USP1. An immunofluorescence assay can be established to monitor Ub-PCNA levels in the ovarian cancer cell line, ES2.
An assay can be performed by first plating 5000 ES2 cells per well in black 96 well plates (Corning #3904) and then incubating overnight at 37° C. and 5% CO2. Compounds, resuspended in DMSO, can be added to the cells, to a final DMSO concentration of 0.3%. Plates can be incubated at 37° C. and 5% CO2 for 3 hours.
Cells can be then fixed and stained by first removing the media from each plate and fixing the cells with −20° C. methanol for 5 minutes at room temperature. Fixation plates can be washed with Tris buffered saline with tween (Boston Bioproducts #IBB-855) 5 times for 5 minutes each. […]
Imaging of the plates can be performed by first locating the nuclei using the DAPI stain. […] Ub-PCNA intensities can be measured for each individual nucleus counted. A histogram of all Ub-PCNA nuclear intensities measured in untreated wells can be generated and a 95% cutoff can be established. […] The number of positive cells can be expressed as a percentage by dividing by the total number of cells in the well. […]

USP1/UAF1 enzyme = USP1/UAF1 enzyme (Homo sapiens, UniProt O94782); assay: USP1/UAF1 deubiquitination assay (ubiquitin-rhodamine 110 substrate); settings: read-out: USP1 IC50 (Ub-Rho)
Description: Certain Compounds of the Disclosure were assessed for USP1/UAF1 activity in a Ubiquitin Rhodamine assay modified from those described previously.
Deubiquitinase activity was measured using ubiquitin-rhodamine 110 as a substrate. Cleavage of the amide bond between rhodamine and the c-terminal glycine of ubiquitin yields an increase in fluorescence signal. The assay was conducted in 20 μl total volume of assay buffer (50 mM Tris-HCl, pH 7.8, 0.5 mM EDTA, 0.01% Bovine Serum Albumin, 1 mM DTT, 0.01% Tween-20), and 0.05 nM USP1/UAF1 enzyme. Reaction was initiated by addition of 150 nM Ubiquitin-rhodamine (Boston Biochem) substrate.
Compounds of the Disclosure, dissolved in DMSO were tested in dose response format, beginning at […].
The example compounds listed below were added to enzyme/assay buffer mix and incubated 10 min. Substrate mix was added, and reaction mix was read in kinetic mode for 30 min at Ex480/Em540 and IC50 response curves were plotted.
Data for all assay formats was calculated as percent inhibition compared with control wells. Percent inhibition was calculated using the following equation: % inhibition=100×[1−(X−min)/(max−min)], where X is the raw data readout, min is the average of the no enzyme control wells (n=32), max is the average of the DMSO control well (n=32). IC50 values were calculated using the standard four parameter curve fitting algorithm in either Prism GraphPad (La Jolla, Calif.) software, or Collaborative Drug Discovery (Burlingame, Calif.) CDD Vault. See Chem. Biol. 20(1): 55-62 (Jan. 24, 2013); Bioorg. Med. Chem. Lett. 23(20): 5660-5666 (Oct. 15, 2013).

[2] = ADME solubility determination in PBS at pH 2.0 and pH 7.4; settings: 24 hours; for Solubility at pH 2.0 (μM): PBS pH 2.0, 25° C.; for Solubility at pH 7.4 (μM): PBS pH 7.4, 25° C.
Description: Certain Compounds of the Disclosure were assessed for ADME solubility at pH 2.0 and pH 7.4.
Stock solutions were prepared by adding each compound to DMSO at a concentration of 10 mM. Samples were prepared by adding 50 μL of each stock solution to separate vials. The vials were loaded onto a 96-well rack and dried. 500 μL of Phosphate Buffered Saline (PBS) pH 7.4 or PBS pH 2.0 were added into each vial. The vials were then shaken at 25° C. and 1,100 rpm for 24 hours.
After 24 hours, the vials were centrifuged at 3220 G and 25° C. for 30 minutes. The supernatant fluid was analyzed by LC-MS/MS against a standard of known concentration. The solubility of each sample was then calculated using the equation below: […]
where DF is the dilution factor.

Row | Compound | IC50 [1] [nM] | IC50 (USP1/UAF1 enzyme) [nM] | Solubility at pH 2.0 (μM) [2] | Solubility at pH 7.4 (μM) [2]
1 | CCn1cc(C(F)(F)F)nc1-c1ccc(CN2CC(C)Cn3nc(-c4c(Cl)cnn4C(C)C)cc32)cc1F (centres unmarked) | < 100 | < 100 | + (“+” indicates less than 10 μM) | + (“+” indicates less than 10 μM)
2 | CCn1cc(C(F)(F)F)nc1-c1ccc(CN2CCCn3nc(-c4c(OC)ncnc4C4CC4)cc32)cc1 | < 100 | < 100 | ++ (“++” indicates 10 μM or greater) | + (“+” indicates less than 10 μM)
3 | COc1cc(C)n(-c2ccc(CN3C(=O)CCn4nc(-c5c(Cl)cnn5C(C)C)cc43)cc2)n1 |  | 100 to 500 | + (“+” indicates less than 10 μM) | + (“+” indicates less than 10 μM)
